Experimental data: patent US12115147B2, “Formulations and methods related to eye irritation” (Lebrun Labs LLC, priority 2020, dated 2024)
This is a selection: effects in other tests are not listed, and their absence says nothing.

How the values were obtained:
rabbit eye = conditions: Table 7A; based on the Draize data; cited from earlier work
[1] = Table 7A; consensus of past transferability study, no antioxidants; predicted GHS class; cited from earlier work
[2] = OS2 (OPTISAFE2), OPTISAFE formulation with antioxidants; conditions: Table 7A

Ammonium nitrate
In vivo GHS (rabbit eye): Cat 2A | OS Cons [1]: 2 | OS2 Cons ([2]; majority prediction of the triplicate assays): 2 | 0S2 R1 ([2]; repeat 1, with antioxidants, predicted GHS class): 2 | OS2 R3 ([2]; repeat 3, with antioxidants, predicted GHS class): 2
